Results published in article PMC8691691 (ACS Chemical Neuroscience, 2021).
Residue numbers refer to the chain shown, from its start.

What was measured:
GlyT2 W217F mutant = target: T1, GlyT2 W217F mutant (Rattus norvegicus, UniProt P58295, W217F); assay: [3H]glycine transport by GlyT2 mutant in COS7 cells; type: cell-based
T1 construct: expressed in transfected cells; host or cells: COS7
T1 sequence (P58295 1-799 W217F): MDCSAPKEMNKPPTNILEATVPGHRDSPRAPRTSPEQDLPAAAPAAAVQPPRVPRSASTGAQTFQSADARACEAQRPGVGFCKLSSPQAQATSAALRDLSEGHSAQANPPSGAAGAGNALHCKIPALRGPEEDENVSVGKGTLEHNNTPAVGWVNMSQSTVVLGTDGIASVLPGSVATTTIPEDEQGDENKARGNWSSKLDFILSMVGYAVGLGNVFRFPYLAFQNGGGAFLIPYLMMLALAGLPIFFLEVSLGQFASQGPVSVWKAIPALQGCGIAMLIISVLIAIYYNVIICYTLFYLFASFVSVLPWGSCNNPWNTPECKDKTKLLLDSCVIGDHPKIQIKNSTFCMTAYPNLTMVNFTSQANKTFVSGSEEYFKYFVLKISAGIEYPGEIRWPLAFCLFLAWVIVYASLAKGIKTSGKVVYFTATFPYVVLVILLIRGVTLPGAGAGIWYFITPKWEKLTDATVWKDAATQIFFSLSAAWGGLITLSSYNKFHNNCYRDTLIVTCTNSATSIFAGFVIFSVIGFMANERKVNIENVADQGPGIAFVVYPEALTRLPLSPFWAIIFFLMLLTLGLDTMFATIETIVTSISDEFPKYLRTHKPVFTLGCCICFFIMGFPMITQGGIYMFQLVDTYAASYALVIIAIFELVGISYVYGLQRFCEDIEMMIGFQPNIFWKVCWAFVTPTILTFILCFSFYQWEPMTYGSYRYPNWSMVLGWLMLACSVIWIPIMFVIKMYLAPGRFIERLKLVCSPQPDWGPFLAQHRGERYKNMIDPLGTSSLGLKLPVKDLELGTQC
From the text: (§1) To validate the predicted interactions between the inhibitors and GlyT2, we used systematic site-directed mutagenesis to construct substitution mutants of the potential residues involved in ligand binding. […] The GlyT2 residues predicted to interact with the inhibitors through its side chain were replaced by amino acids expected to force the loss of the interaction. In the cases where the interaction occurred through the backbone, the inserted amino acid sought to alter the disposition of the substituted residue to lose the coordination. […] Most of the mutants were active, although depicted lower activity as compared to the wild-type. […] These two residues are preserved throughout the NSS family, and Tyr-289 has proven to have an important structural role in stabilizing the unwound portion of the TM1 helix, whereas Tyr-209 has a key role in S1 site formation through its interaction with Ser-481.[25],[30],[33] Other residues such as Leu-213 or Ser-479 are involved in the formation of the glycine-binding site and Na^+-binding site, respectively.
(§2) Substitution mutants were generated with the QuikChange II Site-Directed Mutagenesis kit (Agilent Technologies, Santa Clara, CA, USA), using rGlyT2 or rGlyT1 subcloned in pCDNA3.[47] The complete coding region of all of the constructs was sequenced to verify that only the desired mutation had been introduced. Plasmids from two independent Escherichia coli colonies were expressed in eukaryotic cells as indicated below, and [^3H]glycine transport and/or immunodetection was performed for verification. COS7 cells were grown and transfected using Turbofect Transfection Reagent (Thermo Fisher Scientific, Waltham, MA, USA), following the manufacturer’s protocol (2 μL reagent/μg of DNA). Cells were incubated for 48 h at 37 °C until used.
(§3) COS7 cells were washed and incubated at 37 °C in HEPES-buffered saline (HBS, in mM: 150 NaCl, 10 HEPES-Tris, pH 7.4, 1 CaCl2, 5 KCl, 1 MgSO4, 10 glucose) containing 2 μCi/mL [2-^3H]glycine (1.6 TBq/mmol; PerkinElmer Life Sciences), at 10 μM final glycine concentration if not otherwise stated.[48] At the end of the desired time (usually 10 min), reactions were washed and terminated by aspiration. Protein concentration (Bradford) and [2-^3H]glycine levels (liquid scintillation, LKB 1219 Rackbeta) were determined. Glycine accumulation measured in mock-transfected cells was subtracted from that of the transporter-transfected cells and normalized by the protein concentration. Kinetic analyses were performed by varying glycine concentration in the uptake medium between 0.5 and 500 μM. […] The determinations of the IC50 were performed initially by diluting compounds by log steps with the vehicle from 1 nM to 1 μM. Then, exact IC50 values were determined by means of 8-point concentration curves performed over a suitable range using half log dilutions with the vehicle. A nonlinear curve fitting method was used to obtain IC50 values using Graphpad Prism software, version 6.0, Graphpad, San Diego, CA, USA.

GlyT2 T584F mutant = target: T2, GlyT2 T584F mutant (Rattus norvegicus, UniProt P58295, T584F); assay: as above; type: cell-based
T2 construct: expressed in transfected cells; host or cells: COS7
T2 sequence (P58295 1-799 T584F): T1 sequence (P58295 1-799 W217F) with F217W, T584F
From the text: as §1, §2, §3

Molecule NCC(=O)O [Gly, glycine] has an EC50 (GlyT2 W217F mutant) of 245 ± 27 µM and an EC50 (GlyT2 T584F mutant) of 180 ± 0.6 µM.
